Read-outs that look alike come from different tables or passages of the source.
Target: TPK enzyme (Homo sapiens (Human), UniProt Q9H3S4)
Assay: TPK enzyme activity test
Assay type: biochemical
[1] = calculated with the effect of DMSO on TPK enzyme activity as 100%, read-out: Emax

Protein sequences, listed by entry. Tags and fused reporters are not part of them. Lines headed by an entry give the natural chain unless they say otherwise; changes in a name come on top.
UniProt Q9H3S4: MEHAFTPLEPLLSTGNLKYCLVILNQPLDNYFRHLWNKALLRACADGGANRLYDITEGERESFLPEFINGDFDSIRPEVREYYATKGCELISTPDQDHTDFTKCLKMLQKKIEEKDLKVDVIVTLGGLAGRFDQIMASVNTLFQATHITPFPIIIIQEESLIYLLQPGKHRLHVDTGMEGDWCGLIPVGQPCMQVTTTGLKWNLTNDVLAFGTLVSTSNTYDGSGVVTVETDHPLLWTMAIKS

O=C(CCn1cnc2c(sc3ccccc32)c1=O)N1CCN(c2cccc(C(F)(F)F)c2)CC1 [Compound 144, 3-(3-oxo-3-(4-(3-(trifluoromethyl)phenyl)piperazin-1-yl)propyl)benzo[4,5]thieno[3,2-d]pyrimidin-4(3H)-one]
EC50: 1.96 µM
Emax: 161%

Cc1ccc2[nH]c3c(=O)n(CCC(=O)N4CCC(Cc5ccc(F)cc5)CC4)cnc3c2c1 [Compound 164]
Emax [1]: 173%

Cc1ccc2ncc3c(=O)n(CCCC(=O)N4CCC(Cc5ccc(F)cc5)CC4)cnc3c2c1 [Compound 218, 3-(4-(4-(4-fluorobenzyl)piperidin-1-yl)-4-oxobutyl)-9-methylpyrimido[5,4-c]quinolin-4(3H)-one]
Emax [1]: 154%

Cc1ccc2c(c1)-c1ncn(CCC(=O)N3CCC(Cc4ccc(F)cc4)CC3)c(=O)c1CC2 [Compound 225, 3-(3-(4-(4-fluorobenzyl)piperidin-1-yl)-3-oxopropyl)-9-methyl-5,6-dihydrobenzo[h]quinazolin-4(3H)-one]
Emax [1]: 173%

Source: patent US20250388584A1, “TPK AGONIST AND METHOD FOR TREATING NEURODEGENERATIVE DISEASES USING SAME” (SHANGHAI RAISING PHARMACEUTICAL CO., LTD., priority 2022, published 2025)
